## Measured affinities in a library of Ab-14 heavy chain variants

From the AlphaSeq antibody data of Li et al. 2023 (doi:10.1038/s41467-023-39022-2), copy in the FLAb collection.

All variants were tested on one target, the spike HR2 peptide PDVDLGDISGINAS (SARS-CoV-2).

Each scFv is VH, a 15-residue (Gly4Ser)3 linker, VL, as in the parent Ab-14, and differs from it in the CDRs of the heavy chain only.
VH: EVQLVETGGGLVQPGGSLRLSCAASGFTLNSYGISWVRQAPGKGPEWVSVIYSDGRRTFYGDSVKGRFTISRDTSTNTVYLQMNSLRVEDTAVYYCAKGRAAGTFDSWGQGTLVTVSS
VL: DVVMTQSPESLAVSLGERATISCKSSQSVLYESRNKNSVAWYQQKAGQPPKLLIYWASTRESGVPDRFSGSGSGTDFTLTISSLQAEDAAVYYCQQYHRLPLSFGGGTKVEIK

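The starting antibody came from a phage panning campaign against this peptide. The variants were designed computationally from a first round of random CDR variants and then made and measured. Their group label is 14H_En_Gibbs (En: ensemble of fine-tuned language models; Gibbs: Gibbs sampling). In AlphaSeq, yeast of one mating type display the scFv and yeast of the other type display the target. Pairs that bind mate more often; barcode pairs of the diploids are counted by sequencing. Read counts were normalised to the haploid input and turned into Kd by a linear fit to BCL2-family pairs of known affinity, for each replicate. Each pool was mated in six replicate cultures.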

Variants are written as CDR1, CDR2 and CDR3 of the heavy chain (limits as in the source). Parent: GFTLNSYGIS, VIYSDGRRTFYGDSVK, GRAAGTFDS. Numbers give log10(Kd / nM), so 0 is 1 nM and 3 is 1 µM. Smaller is tighter. Averages over replicates are reported, and they cover detected replicates only. An entry "n.d." has no value in the source: the pair was not observed among the diploids in that replicate. This suggests poor binding but is not conclusive. The authors averaged sequences with at least three values out of six and counted those with two or fewer as poor binders.

{"CDR-H1": "GADLKEYGIS", "CDR-H2": "VIYADGSRTAYSKNVK", "CDR-H3": "GEFDDMVLV", "log10 Kd, replicates": "n.d. n.d. n.d. n.d. n.d. n.d.", "log10 Kd (nM), mean": "n.d.", "empty controls": "0 of 18"}
{"CDR-H1": "GKKLDEYGIS", "CDR-H2": "VIYADGMRTMYTDSVK", "CDR-H3": "GQLDDGMQL", "log10 Kd, replicates": "n.d. n.d. n.d. n.d. n.d. n.d.", "log10 Kd (nM), mean": "n.d.", "empty controls": "1 of 18 (1.60)"}
{"CDR-H1": "GFDVDKYGIS", "CDR-H2": "VIYADGRRKFYQNQFK", "CDR-H3": "GGQAGTFVN", "log10 Kd, replicates": "n.d. n.d. n.d. n.d. n.d. n.d.", "log10 Kd (nM), mean": "n.d.", "empty controls": "0 of 18"}
{"CDR-H1": "GQNLDEYGIS", "CDR-H2": "VIYADGMRKWYADSVK", "CDR-H3": "GNMSAGLVA", "log10 Kd, replicates": "n.d. n.d. n.d. n.d. n.d. n.d.", "log10 Kd (nM), mean": "n.d.", "empty controls": "0 of 18"}
{"CDR-H1": "GFDINEYGIS", "CDR-H2": "VIYADGMRKAYVQNVK", "CDR-H3": "GENSRSVFI", "log10 Kd, replicates": "n.d. n.d. n.d. n.d. n.d. n.d.", "log10 Kd (nM), mean": "n.d.", "empty controls": "0 of 18"}
{"CDR-H1": "GFDINEYGIS", "CDR-H2": "VIYADGSRAAYADRVK", "CDR-H3": "GQWGCVIYV", "log10 Kd, replicates": "n.d. n.d. n.d. n.d. n.d. n.d.", "log10 Kd (nM), mean": "n.d.", "empty controls": "0 of 18"}
{"CDR-H1": "GFGLGEYGIS", "CDR-H2": "VIYADGHRTAYSTSVK", "CDR-H3": "GTIGGMFFN", "log10 Kd, replicates": "n.d. n.d. n.d. n.d. 2.68 n.d.", "log10 Kd (nM), mean": "2.68", "empty controls": "1 of 18 (2.09)"}
{"CDR-H1": "GFDLNEYGVS", "CDR-H2": "VIYADGQRTYYTESVK", "CDR-H3": "GKFWDQLFA", "log10 Kd, replicates": "n.d. n.d. n.d. n.d. n.d. n.d.", "log10 Kd (nM), mean": "n.d.", "empty controls": "0 of 18"}
{"CDR-H1": "GGDLNEYGIS", "CDR-H2": "VIYADGVRKNYIDSVK", "CDR-H3": "GQNGDVLNI", "log10 Kd, replicates": "n.d. n.d. n.d. n.d. n.d. n.d.", "log10 Kd (nM), mean": "n.d.", "empty controls": "0 of 18"}
{"CDR-H1": "GFDLGEYGIS", "CDR-H2": "VIYADGQRRAYQDAVK", "CDR-H3": "GHSSVDYLA", "log10 Kd, replicates": "n.d. n.d. n.d. n.d. n.d. n.d.", "log10 Kd (nM), mean": "n.d.", "empty controls": "0 of 18"}
{"CDR-H1": "GFNLDEYGIS", "CDR-H2": "VIYADGQRVSYDDPVK", "CDR-H3": "GEQGGTVMV", "log10 Kd, replicates": "n.d. n.d. n.d. n.d. n.d. n.d.", "log10 Kd (nM), mean": "n.d.", "empty controls": "0 of 18"}
{"CDR-H1": "GFDLLEYGIS", "CDR-H2": "VIYADGMRVAYAPDVK", "CDR-H3": "GMEGQLVVD", "log10 Kd, replicates": "n.d. n.d. n.d. n.d. n.d. n.d.", "log10 Kd (nM), mean": "n.d.", "empty controls": "1 of 18 (2.01)"}
{"CDR-H1": "GFLLDEYGIS", "CDR-H2": "VIYADGQRTAYTDDVK", "CDR-H3": "GYVGGIGGI", "log10 Kd, replicates": "n.d. 1.52 n.d. n.d. n.d. n.d.", "log10 Kd (nM), mean": "1.52", "empty controls": "0 of 18"}
{"CDR-H1": "GFDVDEYGIS", "CDR-H2": "VIYADGRRVAYHDSFK", "CDR-H3": "GQNNVVSIV", "log10 Kd, replicates": "0.60 -0.32 -0.60 -0.55 -0.64 -0.02", "log10 Kd (nM), mean": "-0.25", "empty controls": "0 of 18"}
{"CDR-H1": "GFSLEEYGIS", "CDR-H2": "VIYADGMRTFYTDKVK", "CDR-H3": "GGLDDQEGY", "log10 Kd, replicates": "n.d. n.d. n.d. n.d. n.d. 3.80", "log10 Kd (nM), mean": "3.80", "empty controls": "0 of 18"}
{"CDR-H1": "GFDLEEYGIS", "CDR-H2": "VIYADGMRQYAQDNVK", "CDR-H3": "GLISGTGKT", "log10 Kd, replicates": "n.d. n.d. n.d. n.d. 1.80 n.d.", "log10 Kd (nM), mean": "1.80", "empty controls": "0 of 18"}
{"CDR-H1": "GFNINEYGIS", "CDR-H2": "VIYADGIRTHYVDDVK", "CDR-H3": "GKHTGVKMD", "log10 Kd, replicates": "n.d. n.d. n.d. n.d. n.d. n.d.", "log10 Kd (nM), mean": "n.d.", "empty controls": "1 of 18 (1.76)"}
{"CDR-H1": "GFDLEEYGIS", "CDR-H2": "VIYADGKRSFVSNSVK", "CDR-H3": "GQLGNAFDM", "log10 Kd, replicates": "n.d. n.d. n.d. n.d. n.d. n.d.", "log10 Kd (nM), mean": "n.d.", "empty controls": "2 of 18 (1.19)"}
{"CDR-H1": "GFDINEYGIS", "CDR-H2": "VIYADGRREAYAESVK", "CDR-H3": "GFNQTINLV", "log10 Kd, replicates": "n.d. n.d. n.d. n.d. n.d. n.d.", "log10 Kd (nM), mean": "n.d.", "empty controls": "0 of 18"}
{"CDR-H1": "GFDLDKYGIS", "CDR-H2": "VIYADGRRKAYQNQFK", "CDR-H3": "GGQTGTFDI", "log10 Kd, replicates": "n.d. n.d. n.d. n.d. n.d. n.d.", "log10 Kd (nM), mean": "n.d.", "empty controls": "0 of 18"}
{"CDR-H1": "GFDLQEYGIS", "CDR-H2": "VIYADGVREAYTESVK", "CDR-H3": "GNSGGRDML", "log10 Kd, replicates": "2.61 n.d. 2.62 n.d. n.d. n.d.", "log10 Kd (nM), mean": "2.61", "empty controls": "0 of 18"}
{"CDR-H1": "GMDLNEYGIS", "CDR-H2": "VIYADGRRAAYINQVK", "CDR-H3": "GSNSDTVSL", "log10 Kd, replicates": "n.d. n.d. n.d. 1.13 n.d. 1.69", "log10 Kd (nM), mean": "1.41", "empty controls": "0 of 18"}
{"CDR-H1": "GFGLDEYGIS", "CDR-H2": "VIYADGMRTAYKNSVK", "CDR-H3": "GSFTYVMFV", "log10 Kd, replicates": "n.d. n.d. n.d. n.d. n.d. n.d.", "log10 Kd (nM), mean": "n.d.", "empty controls": "0 of 18"}
{"CDR-H1": "GEGLDEYGIS", "CDR-H2": "VIYADGRKQSYSDSVK", "CDR-H3": "GAIAGNFDA", "log10 Kd, replicates": "n.d. n.d. 2.05 1.78 n.d. n.d.", "log10 Kd (nM), mean": "1.91", "empty controls": "0 of 18"}
{"CDR-H1": "GYDIQEYGIS", "CDR-H2": "VIYADGVRVAYHDSVK", "CDR-H3": "GQTAGFFLL", "log10 Kd, replicates": "n.d. n.d. n.d. n.d. n.d. n.d.", "log10 Kd (nM), mean": "n.d.", "empty controls": "0 of 18"}
{"CDR-H1": "GFSLDEYGIS", "CDR-H2": "VIYADGIRQHYSDQVK", "CDR-H3": "GVKNGNVIL", "log10 Kd, replicates": "n.d. n.d. 0.55 n.d. n.d. n.d.", "log10 Kd (nM), mean": "0.55", "empty controls": "0 of 18"}
{"CDR-H1": "GPNLEEYGIS", "CDR-H2": "VIYADGIRTAYKDSVK", "CDR-H3": "GDVAGIGDF", "log10 Kd, replicates": "n.d. n.d. n.d. n.d. n.d. n.d.", "log10 Kd (nM), mean": "n.d.", "empty controls": "0 of 18"}
{"CDR-H1": "KFDLEAYGIS", "CDR-H2": "VIYADGVRAAYVDKVK", "CDR-H3": "GQTGGMFDM", "log10 Kd, replicates": "n.d. 2.48 n.d. n.d. 2.69 n.d.", "log10 Kd (nM), mean": "2.58", "empty controls": "0 of 18"}

For reference, 4 entries of the list once more:

{"CDR-H1": "GFDVDEYGIS", "CDR-H2": "VIYADGRRVAYHDSFK", "CDR-H3": "GQNNVVSIV", "log10 Kd, replicates": "0.60 -0.32 -0.60 -0.55 -0.64 -0.02", "log10 Kd (nM), mean": "-0.25", "empty controls": "0 of 18"}
{"CDR-H1": "GFDLGEYGIS", "CDR-H2": "VIYADGQRRAYQDAVK", "CDR-H3": "GHSSVDYLA", "log10 Kd, replicates": "n.d. n.d. n.d. n.d. n.d. n.d.", "log10 Kd (nM), mean": "n.d.", "empty controls": "0 of 18"}
{"CDR-H1": "GFDLDKYGIS", "CDR-H2": "VIYADGRRKAYQNQFK", "CDR-H3": "GGQTGTFDI", "log10 Kd, replicates": "n.d. n.d. n.d. n.d. n.d. n.d.", "log10 Kd (nM), mean": "n.d.", "empty controls": "0 of 18"}
{"CDR-H1": "GQNLDEYGIS", "CDR-H2": "VIYADGMRKWYADSVK", "CDR-H3": "GNMSAGLVA", "log10 Kd, replicates": "n.d. n.d. n.d. n.d. n.d. n.d.", "log10 Kd (nM), mean": "n.d.", "empty controls": "0 of 18"}

The range of this assay differs from that of the first round, and the authors advise against merging the two. Three control strains display no target. For all heavy chain designs, 1% of the pairings with them gave a signal, with a median of 2.08 and one signal in twenty below 0.84, so weak values seen in few replicates may be background. The control count says in how many pairings with the empty strains this scFv gave a signal, with their mean in brackets.